Literature values in US10722492B2, “Andrographolide treats progressive forms of multiple sclerosis” (INNOBIOSCIENCES, LLC, priority 2016, dated 2020).

Tests used:
SP & PPMS forms = conditions: summary of prior art; cited from earlier work
[1] = system: patients with Secondary progressive MS with relapses; conditions: cited from earlier work
[2] = system: subjects with Secondary progressive MS with relapses; conditions: vs placebo, cited from earlier work

B1: Interferon beta-1a (protein, UniProt P01574 22-187, looked up)
Interferon beta: MSYNLLGFLQRSSNFQCQKLLWQLNGRLEYCLKDRMNFDIPEEIKQLQQFQKEDAALTIYEMLQNIFAIFRQDSSSTGWNETIVENLLANVYHQINHLKTVLEEKLEKEDFTRGKLMSSLHLKRYYGRILHYLKAKEYSHCAWTIVRVEILRNFYFINRLTGYLRN
- slowing down / reduction of disability progression in progressive MS (SP & PPMS forms): failed to demonstrate efficacy
- disability progression ([1]; 3 years, p=0.146): did not significantly affect disability progression
- MRI outcomes ([1]; 3 years): significant treatment benefit
- relapse rate ([1]; reduced from 0.71, p<0.001): 0.50 per year
- MRI activity ([2]; p<0.001): less MRI activity
- fewer relapses ([2]; two years, p=0.008): 33%
- MSFC decrease ([2]; two years, p=0.033): 40.4%
- MS Quality of Life scales ([2]; two years): better outcome in eight of eleven
